Source: US20220370454A1, “METHODS FOR TREATING CENTRAL NERVOUS SYSTEM DISORDERS WITH MUSCARINIC RECEPTOR ACTIVATION AND ANTIPSYCHOTICS” (Karuna Therapeutics, Inc., priority 2021, published 2022)

Assay: Brain and plasma drug exposure collected after the LMA study
Type: in vivo, mice
Source text: After the experiment, plasma and brain tissue were collected to determine drug exposure.

## Cc1nc2n(c(=O)c1CCN1CCC(c3noc4cc(F)ccc34)CC1)CCCC2 [Risperidone, risperidone]
0.01 mg/kg risperidone dose
  Risperidone plasma levels with xanomeline: does not alter
treatment: MK-801 0.3 + risperidone 0.001 mg/kg
  Brain level of the named substance: BLD (BLD=below level of detection; 0.2 ng/mL for risperidone and MK-801; 0.4 ng/mL for xanomeline)
treatment: MK-801 0.3 + risperidone 0.003 mg/kg
  Brain level of the named substance: BLD (BLD=below level of detection; 0.2 ng/mL for risperidone and MK-801; 0.4 ng/mL for xanomeline)
treatment: MK-801 0.3 + risperidone 0.01 mg/kg
  Brain level of the named substance: BLD (BLD=below level of detection; 0.2 ng/mL for risperidone and MK-801; 0.4 ng/mL for xanomeline)
treatment: MK-801 0.3 + risperidone 0.1 mg/kg, * MK-801 elevated vs MK-801 alone
  Brain level of the named substance: 22.9 ± 3.0 ng/g
treatment: MK-801 0.3 + risperidone 0.001 + xanomeline 1 mg/kg
  Brain level of the named substance: BLD (BLD=below level of detection; 0.2 ng/mL for risperidone and MK-801; 0.4 ng/mL for xanomeline)
treatment: MK-801 0.3 + risperidone 0.003 + xanomeline 1 mg/kg
  Brain level of the named substance: BLD (BLD=below level of detection; 0.2 ng/mL for risperidone and MK-801; 0.4 ng/mL for xanomeline)
treatment: MK-801 0.3 + risperidone 0.01 + xanomeline 1 mg/kg, * p<0.05 vs xanomeline alone
  Brain level of the named substance: BLD (BLD=below level of detection; 0.2 ng/mL for risperidone and MK-801; 0.4 ng/mL for xanomeline)
